Screens from PubChem.
Rows were chosen to be rich in hits. Some 3.7% of all compounds tested hit in one or more screens of this group.
Nrf2 inh: Nrf2 pathway inhibition; A549 ARE-Fluc reporter, luciferase luminescence, 18-24 h; Potency, µM (doses to about 46 µM), for the others: top-dose activity change, negative = inhibition, most hits filed as inhibitors; hit rate 2.1% among 360,000; AID 504444; further: potency means the concentration at half of the fitted maximal effect; on the % scale 0 is the no-effect control and ±100 the full control effect; nearly all actives have a fitted effect of over 60% in size
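Concentration-response testing used A549 ARE_Fluc cells at 5000 cells/well. Following an 18-24 h compound incubation, viability was read by fluorescence (Ex 405/Em 525) and luciferase output by luminescence.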
Nrf2 ARE act: Nrf2 pathway activation; AID 624171; hit rate 0.31% among 410,000; AREc32 ARE-luciferase reporter (MCF7-derived line), luminescence, 24 h; Potency, µM (titrated, usually from 46.1 µM), without a hit: at the top dose activation, actives largely listed as activators; further: potency means the concentration at half of the fitted maximal effect; % of control where 0% means no effect; nearly all actives have a fitted effect of over 65% in size
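ARE-driven firefly luciferase activity in AREc32 cells measured after a 24 hr compound exposure at 37 deg C, using Steady-Glo reagent and a 30 min room-temperature hold.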
p53 reactivator: re-activators of mutant p53; Potency, µM (highest dose often 92.2 µM), for the others: at the top dose activity change, positive = activation, most hits filed as activators; H1299 p53-A138V BP100-luciferase reporter, luminescence, 24 h; hit rate 0.063% among 320,000; further: potency means the concentration at half of the fitted maximal effect; % of control where 0% means no effect; nearly all actives have a fitted effect of over 45% in size
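p53-null H1299 cells stably carrying temperature-sensitive p53-A138V and a BP100-luciferase reporter were pinned with compounds (4-point, 1:5 series) and held 24 hrs at 37 deg C. Luminescence was read 10 min after detection reagent.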
ClpP mod: qHTS Assay for Activators of ClpP. ATP-dependent Clp protease proteolytic subunit (Bacillus subtilis (strain 168)), P80244. purified B. subtilis ClpP, FRET peptide cleavage, 20 min. Potency, µM (doses to about 57.5 µM), inactives show at the highest dose activity change, negative = active. hit rate 1.9% among 340,000. AID 651965, 2013; active means well fitted falling curve with a large enough effect; inconclusive means small, poorly fitted or top-dose-only effect; inactive means no such curve, though single readings can be large or run the other way; further: potency means the concentration at half of the fitted maximal effect; the source files actives as falling curves though it sought activators and does not explain the sign; nearly all actives have a fitted effect of over 65% in size
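FRET quenching reversal measured ClpP activation: 10 microg/mL B. subtilis ClpP at pH 8 with the FRET-FV decapeptide, read at 430 nm after 320 nm excitation. The 20-min minus 0-min signal was scaled between DMSO/no-enzyme wells and ADEP (5.8 microM final).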
miR-21 reporter: raises the signal of a miR-21 reporter | HeLa miR-21 FLuc reporter, luciferase, 48 h | Potency, µM (highest dose often 38.3 µM), inactives show at the highest dose reporter change, positive = more light | 340,000 tested, under 10 active | AID 2288; active = well fitted rising curve with a large enough effect; inconclusive = small, poorly fitted or top-dose-only effect; inactive = no such curve, though single readings can be large or run the other way;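 note: % of control where 0% means no effect; miR-21 action dims this reporter so a rising signal means less miR-21 action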
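Compounds were titrated across several concentrations (up to approximately 40 uM) and incubated 48 hours with HeLa miR-21-FLuc reporter cells (miR-21 target sequence downstream of FLuc, endogenous miR-21). Readout was firefly luciferase luminescence after lytic detection reagent.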
A549 tox-1: kills or reduces viability of A549 cells in Nrf2 counter-screen; A549 ARE-Fluc cells, CellTiter-Fluor viability, 18-24 h; Potency, µM (highest dose often 46 µM), without a hit: at the highest dose activity change, negative = cytotoxicity, usual class: inhibitors; hit rate 0.16% among 390,000; further: potency means the concentration at half of the fitted maximal effect; on the % scale 0 is the no-effect control and ±100 the full control effect
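Cytotoxicity counterscreen: CellTiter-Fluor fluorescence was measured in A549 ARE_Fluc cells after 18-24 h of compound exposure in a concentration series. The subsequent BugLite luminescent read reports ARE-luciferase activity.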
FLuc enzyme inh: firefly luciferase inhibition, Nrf2 hit validation; shares compounds with Nrf2 inh; purified firefly luciferase, luminescence inhibition; Potency, µM (highest dose often 57.5 µM), for the others: at the top dose activity change, negative = inhibition, usual class: inhibitors; hit rate 4% among 1,400; AID 720522; further: potency means the concentration at half of the fitted maximal effect; on the % scale 0 is the no-effect control and ±100 the full control effect; nearly all actives have a fitted effect of over 65% in size
A549 tox-2: A549 cytotoxicity, Nrf2 inhibitor counterscreen; shares compounds with Nrf2 inh; A549 ARE-Fluc cells, cytotoxicity counterscreen; Potency, µM (doses to about 46.1 µM), without a hit: top-dose activity change, negative = cytotoxicity, actives largely listed as inhibitors; hit rate 2% among 1,400; AID 720523;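 further: potency means the concentration at half of the fitted maximal effect; cells exposed to compounds for 18 to 24 hours; on the % scale 0 is the no-effect control and ±100 the full control effect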
ARE-Fluc inh: Nrf2 inhibition confirmed, A549 ARE-luciferase | shares compounds with Nrf2 inh | A549 ARE-firefly luciferase reporter, luminescence | Potency, µM (doses to about 46.1 µM), for inactives: at the highest dose activity change, negative = inhibition, hits mostly inhibitors | hit rate 74% among 1,400 | AID 720524; further: potency means the concentration at half of the fitted maximal effect; on the % scale 0 is the no-effect control and ±100 the full control effect; nearly all actives have a fitted effect of over 65% in size
* marks the source's active call; other numbers are inactive results; ? = inconclusive; . = not tested or not shown; [ ] = dose if it differs, or a comment. Unless noted, the call rests on the fitted dose curve; in most records, active means well fitted curve in the direction sought with a large enough effect; inconclusive means small, poorly fitted or top-dose-only effect, or another doubt; inactive means no such curve, though single readings can be large; an effect the other way counts as inactive or inconclusive.

| entry | molecule | Nrf2 inh | Nrf2 ARE act | p53 reactivator | ClpP mod | miR-21 reporter | A549 tox-1 | FLuc enzyme inh | A549 tox-2 | ARE-Fluc inh |
| --- | --- | --- | --- | --- | --- | --- | --- | --- | --- | --- |
| 1 | O=C(Oc1ccc(N(Cc2cccs2)C2=NS(=O)(=O)c3ccccc32)cc1)c1ccco1 | -22% | 0% | 9% | -21% | 1% | 0% | . | . | . |
| 2 | O=C(Oc1ccc(N(Cc2cccs2)C2=NS(=O)(=O)c3ccccc32)cc1)c1ccccc1Cl | 1µM* | -1% | -14% | -4% | 1% | -5% | -2% | -1% | 3.7µM* |
| 3 | COc1ccc(Cl)cc1NC(=O)c1cc(S(=O)(=O)N2CCC(C)CC2)cn1C | . | 1% | . | -1% | 0% | -3% | . | . | . |
| 4 | O=C(Nc1ccc(C(=O)NC2CCCCC2)cc1)c1cccnc1 | ? | -1% | 0% | . | -3% | 3% | -3% | -3% | ? |
| 5 | COC(=O)C1=C[C@@H](C(=O)OC)C2C3=C(C(=O)[C@]2(C)NC(=O)c2ccccc2)[C@H](C)n2c(=O)n(-c4ccccc4)c(=O)n2[C@@H]3C1 (stereo not given in full) | ? | . | . | . | . | -1% | . | . | . |
| 6 | CC(C)(C)c1cc(CCC(=O)NNC(=S)NC(=O)c2ccccc2)cc(C(C)(C)C)c1O | 2.9µM* | -1% | -2% | 0% | 21% | ? | 1% | -9% | 15µM* |
| 7 | Cn1c(=O)c2c(nc(SCC(=O)Nc3ccccc3)n2Cc2ccccc2F)n(C)c1=O | 7% | -1% | . | -5% | 0% | -10% | . | . | . |
| 8 | Cn1c(=O)c2c(nc(SCC(=O)Nc3ccc(OC(F)(F)F)cc3)n2Cc2cccc(C(F)(F)F)c2)n(C)c1=O | 7.3µM* | 0% | . | -3% | 19% | ? | 2% | ? | 15µM* |
| 9 | COc1cc(OC)c(/C=C/c2cc(/C=C/c3c(OC)cc(OC)cc3OC)[n+](C)c3ccccc23)c(OC)c1 | . | . | . | -12% | . | . | . | . | . |
| 10 | COc1cc(OC)c(/C=C/c2cc3c4ccccc4ccc3[n+](C)c2)c(OC)c1 | . | . | . | 4% | . | . | 6.7µM* | -15% | 4.6µM* |
| 11 | COc1cc(OC)c(/C=C/c2c3ccccc3cc[n+]2C)c(OC)c1 | . | . | . | -1% | . | . | 1% | ? | 2.1µM* |
| 12 | CCOc1ccc(CNC(=O)CN2C(=O)CSc3c2c(C)nn3-c2ccccc2)cc1 | 6% | 0% | . | 1% | -3% | -1% | . | . | . |
| 13 | COC(=O)C1=C[C@@H](C(=O)OC)[C@@H]2C3=C(C(=O)C2(C)C)[C@H](C)n2c(=O)n(C)c(=O)n2[C@@H]3C1 | -6% | . | . | . | . | 0% | . | . | . |
| 14 | CCOc1ccc(S(=O)(=O)N(C(C)=O)c2ccc3oc(C)c(C(=O)OC)c3c2)cc1 | 2.1µM* | -2% | . | 1% | 29% | -12% | 0% | -20% | 23µM* |
| 15 | COC(=O)c1c(C)oc2ccc(N(C(=O)Oc3ccccc3)S(=O)(=O)c3ccc(C(C)(C)C)cc3)cc12 | 2.3µM* | 0% | . | 0% | 11% | -2% | 2% | -4% | 5.2µM* |
| 16 | COC(=O)c1c(C)oc2ccc(N(C(C)=O)S(=O)(=O)c3ccccc3)cc12 | ? | 4% | -1% | -3% | 7% | ? | . | . | . |
| 17 | Cc1ccccc1-n1c(=O)c2c3c(sc2n2cnnc12)CCCC3 | ? | 0% | . | -11% | -18% | -20% | . | . | . |
| 18 | Cn1nnc2c(N3CCN(c4ccc(F)cc4)CC3)ncnc21 | . | 1% | . | 0% | 2% | -15% | . | . | . |
| 19 | Cc1ccc(-c2nc(S(=O)(=O)c3ccc(C)cc3)c(SCC(=O)c3ccccc3)o2)cc1 | 2%[9.27 µM] | 4% | . | -2% | -2% | 0% | . | . | . |
| 20 | CCCc1nn2c(=O)cc(COC(=O)c3cccc(NC(=O)COc4ccccc4C)c3)nc2s1 | . | 0% | . | 1% | 3% | ? | . | . | . |

Some of these compounds in order of their number in miR-21 reporter, rising:
entry	structure	Nrf2 ARE act	p53 reactivator	ClpP mod	miR-21 reporter	FLuc enzyme inh	ARE-Fluc inh
20	CCCc1nn2c(=O)cc(COC(=O)c3cccc(NC(=O)COc4ccccc4C)c3)nc2s1	0%	.	1%	3%	.	.
16	COC(=O)c1c(C)oc2ccc(N(C(C)=O)S(=O)(=O)c3ccccc3)cc12	4%	-1%	-3%	7%	.	.
6	CC(C)(C)c1cc(CCC(=O)NNC(=S)NC(=O)c2ccccc2)cc(C(C)(C)C)c1O	-1%	-2%	0%	21%	1%	15µM*

Compound profiles, from the list above.
Entry for `CC(C)(C)c1cc(CCC(=O)NNC(=S)NC(=O)c2ccccc2)cc(C(C)(C)C)c1O` = Nrf2 inh = 2.9µM*; Nrf2 ARE act = -1%; p53 reactivator = -2%; ClpP mod = 0%; miR-21 reporter = 21%; A549 tox-1 = ?; FLuc enzyme inh = 1%; A549 tox-2 = -9%; ARE-Fluc inh = 15µM*
Entry for `COc1cc(OC)c(/C=C/c2cc3c4ccccc4ccc3[n+](C)c2)c(OC)c1` = Nrf2 inh = .; Nrf2 ARE act = .; p53 reactivator = .; ClpP mod = 4%; miR-21 reporter = .; A549 tox-1 = .; FLuc enzyme inh = 6.7µM*; A549 tox-2 = -15%; ARE-Fluc inh = 4.6µM*

Following part:
| entry | molecule | Nrf2 inh | Nrf2 ARE act | p53 reactivator | ClpP mod | miR-21 reporter | A549 tox-1 | FLuc enzyme inh | A549 tox-2 | ARE-Fluc inh |
| --- | --- | --- | --- | --- | --- | --- | --- | --- | --- | --- |
| 21 | Cc1nc2c(-c3ccccc3)c(C)[nH]n2c(=O)c1Cc1ccc(Br)cc1 | 8.2µM* | -1% | . | ? | ? | ? | -2% | ? | 3.3µM* |
| 22 | Cc1nc2c(-c3ccccc3)c(C)[nH]n2c(=O)c1Cc1ccc(C(C)C)cc1 | 4.6µM* | -1% | . | ? | ? | ? | 3% | -21% | 5.8µM* |
| 23 | Cc1ccc(Cc2c(C)nc3c(-c4ccccc4)c(C)[nH]n3c2=O)cc1 | 1% | 0% | . | 4% | 0% | -10% | . | . | . |
| 24 | CCOC(=O)c1c(C)[nH]c(CCC(=O)Nc2ccc(C)c(F)c2)c1C | . | 5% | . | 1% | 5% | 5% | . | . | . |
| 25 | Cc1cc(C)cc(NC(=O)c2sc3nc4n(c(=O)c3c2C)N=C(c2ccc(F)cc2)CS4)c1 | . | 2% | . | -1% | -4% | 6% | . | . | . |
| 26 | Cc1c(C(=O)Nc2ccc3c(c2)OCCO3)sc2nc(-c3ccccc3)cn12 | 6.5µM* | -1% | 4% | -12% | ? | ? | ? | -19% | 21µM* |
| 27 | CS(=O)(=O)c1ccc(C(=O)OCC#CCSc2nnc(-c3cccc4ccccc34)o2)cc1 | -2% | . | . | . | . | -7% | . | . | . |
| 28 | Clc1ccc(-c2noc(CSc3nnc(-c4ccncc4)n3-c3ccccc3)n2)cc1 | 2.3µM* | 3% | -10% | -2% | 23% | ? | -9% | -9% | 13µM* |
| 29 | COc1ccc(-c2noc(CSc3nnc(-c4ccncc4)n3-c3ccc(OC)cc3)n2)cc1 | ? | 5% | . | -1% | 6% | 0% | . | . | . |
| 30 | COc1ccc(-c2c(C)c3ccc(O)c(CN4CCOCC4)c3oc2=O)cc1OC | . | 4% | . | 5% | 0% | 11% | . | . | . |
| 31 | CC[C@H](C)[C@@H](C(=O)NCCCCCCCCCCC(=O)N1CCN(C(=O)OC(C)(C)C)CC1)n1cc(CCCCN=C(NC(=O)OC(C)(C)C)NC(=O)OC(C)(C)C)nn1 | . | . | -19% | . | . | . | . | . | . |
| 32 | CC[C@H](C)[C@@H](C(=O)NCCCCCCCCCCC(=O)N1CCN(C(=O)OC(C)(C)C)CC1)n1cc(CCCCCNC(=O)OC(C)(C)C)nn1 | 5.8µM* | 5% | 0% | 0% | . | -6% | -3% | -10% | 7.3µM* |
| 33 | CN(C(=O)c1cccc(NC(=O)Cc2ccc(NC(=O)C3CCN(C(=O)C4CCCCC4)CC3)cc2)c1)C1CCCC1 | -5% | 1% | . | 2% | . | -4% | . | . | . |
